Results on eight compounds are retold here after patent US5032599A, “N-(pyrrol-l-yl)pyridinamines” (Hoechst-Roussel Pharmaceuticals Inc., priority 1988, dated 1991).

Counter-ions that a name gives are not always drawn. Like-named read-outs stand apart in the source and are kept apart here.

The subject of this assay is [^3 H]-QNB (quinuclidinyl benzilate) binding sites. Description: [^3H]-QNB displacement assay. The settings on record: for IC50: [3H]-QNB displacement; for Ratio W/O Zinc/With Zinc: ratio of IC50 without zinc to IC50 with zinc.
The mark [1] stands for this setting: read-out: IC50 W/O Zinc, without zinc.
The mark [2] stands for this setting: read-out: IC50 With Zinc, with zinc.

Turning to `CCN(c1ccncc1)n1cccc1Cl`, the IC50 under setting [1] is 33.4 µM and the IC50 under setting [2] worked out at 5.4 µM.
Consider `CCN(c1ccncc1)n1cccc1Cl.Cl`, for which the Ratio W/O Zinc/With Zinc came to 6.2.
Regarding `CN(c1ccncc1)n1ccc(C=O)c1`, the Ratio W/O Zinc/With Zinc was 5.6. Also, the IC50 under setting [2] turned out to be 32.9 µM.
With `CN(c1ccncc1)n1cccc1`, the IC50 was found to be 142 µM under setting [1] and 13.2 µM under setting [2].
In the case of `CN(c1ccncc1)n1cccc1.Cl`, the Ratio W/O Zinc/With Zinc is 10.7.
Regarding `c1ccn(Nc2ccncc2)c1` [N-(1H-Pyrrol-1-yl)-4-pyridinamine], the Ratio W/O Zinc/With Zinc turned out to be 12.2. In addition, the IC50 under setting [1] came to 367 µM. Under setting [2], the IC50 was found to be 30.4 µM.
In the case of `CC[C@@H]1C(=O)OC[C@@H]1Cc1cncn1C` [Pilocarpine, reference compound], the Ratio W/O Zinc/With Zinc came to 3.4. The IC50 under setting [1] was determined as 5.8 µM. For the same compound, the IC50 under setting [2] came to 1.72 µM.
Regarding `CC(O)c1cccn1N(C)c1ccncc1` (stereo not drawn) [α-methyl-1-[[N-(4-pyridinyl)-N-methyl]amino]-1H-pyrrole-2-methanol maleate], the Ratio W/O Zinc/With Zinc amounted to 7.8. The IC50 under setting [2] turned out to be 22 µM.
